Experiment: Stability of solvent with storage
Assay type: physicochemical

Q: Which “Stability of solvent with storage” value does the source give for Olive oil here?
A: Oxidizes/
